Where two headings read alike, the source gives them in different places.
Assays:
Ba/F3 EGFR L858R/L844V = experiment: Ba/F3 cell proliferation (MTS) assay; assay type: cell-based, murine; settings: Mus musculus
[1] = tested on: Ba/F3 EGFR DEL/T790M/L844V; experiment: Ba/F3 cell proliferation (MTS) assay; assay type: cell-based, murine; settings: Mus musculus
[2] = Ba/F3, EGFR L858R/L844V, 72 hours, MTS, read-out: IC50
[3] = Ba/F3, EGFR DEL/T790M/L844V, 72 hours, MTS, read-out: IC50

Compound	IC50 (Ba/F3 EGFR L858R/L844V; Ba/F3 EGFR, 72 h) [nM]	IC50 ([1]; Ba/F3 EGFR, 72 h) [nM]	IC50 (Ba/F3 EGFR L858R/L844V; [2]) [nM]	IC50 [1, 3] [nM]
C=CC(=O)Nc1cc(Nc2nccc(-c3cn(C)c4ccccc34)n2)c(OC)cc1N(C)CCN(C)C [AZD9291]	29.2	21.6		
C=CC(=O)Nc1cccc(Oc2nc(Nc3ccc(N4CCN(C)CC4)cc3OC)ncc2Cl)c1 [WZ4002]			860	822
C=CC(=O)Nc1cc(Nc2nccc(-n3ccc4cccnc43)n2)c(OC)cc1N(C)CCN(C)C [Compound I-1, N-(5-((4-(1H-pyrrolo[2,3-b]pyridin-1-yl)pyrimidin-2-yl)amino)-2-((2-(dimethylamino)ethyl)(methyl)amino)-4-methoxyphenyl)acrylamide]			283	89
